## AlphaSeq binding of Ab-14 heavy chain variants to a spike HR2 peptide

All variants were tested on one target, the spike HR2 peptide PDVDLGDISGINAS (SARS-CoV-2).

The variants keep the light chain, the linker and the frameworks of Ab-14 (scFv order VH, three GGGGS repeats, VL).
VH: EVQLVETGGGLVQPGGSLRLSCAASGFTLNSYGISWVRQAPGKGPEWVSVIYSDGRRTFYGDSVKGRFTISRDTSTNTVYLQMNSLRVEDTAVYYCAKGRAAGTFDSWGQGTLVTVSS
VL: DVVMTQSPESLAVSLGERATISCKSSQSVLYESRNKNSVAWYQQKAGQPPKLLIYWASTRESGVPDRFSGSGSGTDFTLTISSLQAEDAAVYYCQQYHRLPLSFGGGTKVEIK

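The parent was found by panning a naive human phage display library on the peptide. Designed CDR sequences, proposed from the first random library and measured here. Several design methods are mixed in this list. The scFvs were displayed on barcoded MATa yeast, the peptide on MATalpha yeast. Binding brings cells together so that they mate, and sequencing counts the barcode pairs among the diploids. The ratio of observed to expected reads was calibrated, replicate by replicate, on BCL2-family standards whose Kd was known from biolayer interferometry. The assay was run in six technical replicates.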

Positions count from residue 1 of the parent VH; G61S puts S in place of G. Variants here have at most six changes. Each Kd is an estimate from the mating assay, the geometric mean of the replicates in which the pair was seen; lower is stronger. "no signal" marks a missing value. The strain was present, yet no cells mated with the target were sequenced in any replicate, which points to weak or no binding. Entries are sorted by rising average, undetected variants last.

The variant G61S/R100V/A101V gave 380 pM (6 of 6 replicates). The variant T28G/S31E/R100T/A101N gave 530 pM (6 of 6 replicates). For S31E/G61H/A101T, the assay gave 970 pM (6 of 6 replicates). With T28D/G61V/R100Q/S107T the result was 1.6 nM (6 of 6 replicates). The variant T28E/S31E/A101E showed 1.8 nM (6 of 6 replicates).

The variant T28N/S63D/R100S/A101E gave 1.8 nM (6 of 6 replicates). For T28S/G61A/S63D/R100N/S107T, the assay gave 2.7 nM (6 of 6 replicates). For T28S/R100W/A101T, the assay gave 3.1 nM (6 of 6 replicates). The variant T28D/S31E/G61S/R100K showed 3.6 nM (6 of 6 replicates). For T28L/S31E/R100E, the assay gave 3.8 nM (6 of 6 replicates).

The variant T28D/F59V/R100Q showed 4.0 nM (6 of 6 replicates). With T28E/S31M/A101T the result was 4.4 nM (6 of 6 replicates). The variant G26A/T28D/R100Q/A101T gave 4.8 nM (6 of 6 replicates). For T28D/G61T/R100M/A101F, the assay gave 7.7 nM (6 of 6 replicates). For T28S/F59V, the assay gave 9.4 nM (5 of 6 replicates).

With T28E/R56M/G61S/A101T the result was 15 nM (6 of 6 replicates). The variant T28Y/G61D/R100Q/A101L showed 17 nM (2 of 6 replicates). With T28E/S31T/R100Q the result was 28 nM (6 of 6 replicates). With N30E/R100I/A101G the result was 38 nM (1 of 6 replicates). The variant T28S/G61A/S63M/R100E gave 44 nM (6 of 6 replicates).

The variant T58A/G61H/R100S/A101N gave 50 nM (3 of 6 replicates). For T28S/L29I/S31E/S63A/T104C, the assay gave 62 nM (6 of 6 replicates). For T28C/G61S/A101T, the assay gave 81 nM (5 of 6 replicates). For G26K/T28N/G61A/A101M, the assay gave 85 nM (5 of 6 replicates). With N30A/S31D/F59Q/G61I the result was 140 nM (2 of 6 replicates).

For T28D/D106N/S107K, the assay gave 290 nM (2 of 6 replicates). With T28A/A101E/G103D the result was 2.2 µM (1 of 6 replicates). For T28D/S31E/G103A/S107Q, the assay gave no signal (0 of 6 replicates). With F27K/T28S/S63Q/R100Q/A101T the result was no signal (0 of 6 replicates). The variant S31D/D106H/S107K showed no signal (0 of 6 replicates).

The variant G61S/R100V/A101E/D106F gave no signal (0 of 6 replicates). The variant T28S/S31E/G61W/G103V/S107Q gave no signal (0 of 6 replicates). The variant T28S/S53A/S63D/D106K gave no signal (0 of 6 replicates). With T28H/S31D/R100T the result was no signal (0 of 6 replicates). With S31E/R57E/G61Q/G103V/S107Q the result was no signal (0 of 6 replicates).

For T104E/D106S/S107L, the assay gave no signal (0 of 6 replicates). With T28Q/S31E/A101S the result was no signal (0 of 6 replicates). For T28E/A101N/A102K, the assay gave no signal (0 of 6 replicates). The variant R56L/R100A/A102C gave no signal (0 of 6 replicates). The variant T28D/T104F/D106N gave no signal (0 of 6 replicates).

For Y32Q/G61S/S63N/R100T/D106S, the assay gave no signal (0 of 6 replicates). For T28H/G61I/S63N/V64H/D106P/S107V, the assay gave no signal (0 of 6 replicates).

The closing 7 entries, repeated:

| changes | Kd (apparent) | detected |
|---|---|---|
| T104E/D106S/S107L | no signal | 0/6 |
| T28Q/S31E/A101S | no signal | 0/6 |
| T28E/A101N/A102K | no signal | 0/6 |
| R56L/R100A/A102C | no signal | 0/6 |
| T28D/T104F/D106N | no signal | 0/6 |
| Y32Q/G61S/S63N/R100T/D106S | no signal | 0/6 |
| T28H/G61I/S63N/V64H/D106P/S107V | no signal | 0/6 |

As a blank, each scFv also met three strains without target: over all heavy chain designs, 1% of these pairings were detected, typically at 120 nM and seldom below 7.0 nM. A sequence measured in both rounds can read differently, since the two assays cover different ranges. In the paper, a design with two or fewer of six values counts as a poor binder.

Values reported by Li et al. 2023, doi:10.1038/s41467-023-39022-2 (FLAb copy).